Results as given in patent US20180193330A1, “ALKYLATED TETRAHYDROISOQUINOLINES FOR BINDING TO CENTRAL NERVOUS SYSTEM RECEPTORS” (Florida A&M University, priority 2017, published 2018).

Amino acid sequences for entries named in this document (tags omitted). Residues count along the entry.
UniProt P28223, whole entry: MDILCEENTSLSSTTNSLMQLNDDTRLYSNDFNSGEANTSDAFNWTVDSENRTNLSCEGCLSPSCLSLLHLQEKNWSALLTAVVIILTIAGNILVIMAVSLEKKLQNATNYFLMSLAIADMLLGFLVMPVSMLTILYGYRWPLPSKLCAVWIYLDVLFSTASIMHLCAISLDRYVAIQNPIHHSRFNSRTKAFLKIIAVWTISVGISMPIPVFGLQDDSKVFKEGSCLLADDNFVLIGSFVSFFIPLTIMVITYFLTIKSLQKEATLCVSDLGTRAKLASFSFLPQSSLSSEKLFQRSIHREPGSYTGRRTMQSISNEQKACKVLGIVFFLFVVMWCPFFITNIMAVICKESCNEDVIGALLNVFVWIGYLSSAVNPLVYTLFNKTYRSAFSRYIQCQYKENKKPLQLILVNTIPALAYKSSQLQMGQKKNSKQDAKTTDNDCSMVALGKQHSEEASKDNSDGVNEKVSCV
UniProt P14416, whole entry: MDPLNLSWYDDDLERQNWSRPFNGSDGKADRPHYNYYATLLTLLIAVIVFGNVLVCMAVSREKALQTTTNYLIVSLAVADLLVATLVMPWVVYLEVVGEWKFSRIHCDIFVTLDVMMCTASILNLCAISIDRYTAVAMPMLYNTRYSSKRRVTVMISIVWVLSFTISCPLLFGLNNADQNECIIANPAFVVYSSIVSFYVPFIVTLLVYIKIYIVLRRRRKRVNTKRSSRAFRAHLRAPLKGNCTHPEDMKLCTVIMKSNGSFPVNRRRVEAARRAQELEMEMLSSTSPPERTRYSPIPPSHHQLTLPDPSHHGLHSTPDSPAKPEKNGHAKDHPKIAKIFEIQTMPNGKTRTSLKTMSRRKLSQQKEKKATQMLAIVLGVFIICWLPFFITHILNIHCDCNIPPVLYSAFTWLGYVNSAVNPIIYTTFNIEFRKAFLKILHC
UniProt P08908, whole entry: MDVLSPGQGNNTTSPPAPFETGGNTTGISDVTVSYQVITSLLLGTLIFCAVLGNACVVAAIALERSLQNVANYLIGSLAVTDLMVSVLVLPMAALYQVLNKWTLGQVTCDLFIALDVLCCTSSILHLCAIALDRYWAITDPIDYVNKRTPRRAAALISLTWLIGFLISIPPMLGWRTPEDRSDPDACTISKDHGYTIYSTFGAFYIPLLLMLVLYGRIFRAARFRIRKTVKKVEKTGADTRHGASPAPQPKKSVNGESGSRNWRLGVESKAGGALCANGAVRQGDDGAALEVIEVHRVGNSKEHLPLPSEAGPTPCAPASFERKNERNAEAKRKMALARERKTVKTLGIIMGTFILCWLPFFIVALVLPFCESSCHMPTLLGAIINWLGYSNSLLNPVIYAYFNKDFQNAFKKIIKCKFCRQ
UniProt P35462, whole entry: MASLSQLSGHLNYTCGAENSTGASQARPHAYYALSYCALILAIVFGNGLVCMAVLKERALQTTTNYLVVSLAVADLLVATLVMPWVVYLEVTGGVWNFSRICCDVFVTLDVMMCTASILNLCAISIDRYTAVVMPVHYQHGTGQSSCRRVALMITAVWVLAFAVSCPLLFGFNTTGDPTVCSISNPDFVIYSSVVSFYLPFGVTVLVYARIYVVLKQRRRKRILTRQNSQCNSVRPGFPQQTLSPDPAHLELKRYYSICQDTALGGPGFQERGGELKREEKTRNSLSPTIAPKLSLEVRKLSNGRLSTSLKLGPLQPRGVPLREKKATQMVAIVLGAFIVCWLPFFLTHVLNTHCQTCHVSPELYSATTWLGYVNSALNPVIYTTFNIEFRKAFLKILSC
UniProt P34969, whole entry: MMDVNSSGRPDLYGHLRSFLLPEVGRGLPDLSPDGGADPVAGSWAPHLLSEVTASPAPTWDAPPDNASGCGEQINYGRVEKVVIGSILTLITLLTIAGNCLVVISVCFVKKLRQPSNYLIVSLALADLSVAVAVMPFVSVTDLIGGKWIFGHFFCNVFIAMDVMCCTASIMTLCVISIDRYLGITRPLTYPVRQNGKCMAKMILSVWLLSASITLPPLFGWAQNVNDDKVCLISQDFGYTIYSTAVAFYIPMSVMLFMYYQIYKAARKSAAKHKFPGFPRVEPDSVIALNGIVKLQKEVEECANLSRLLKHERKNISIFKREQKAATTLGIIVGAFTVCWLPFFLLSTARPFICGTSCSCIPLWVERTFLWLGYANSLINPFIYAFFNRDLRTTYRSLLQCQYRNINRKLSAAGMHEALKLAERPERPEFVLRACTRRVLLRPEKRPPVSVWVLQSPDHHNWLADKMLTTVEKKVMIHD
UniProt P28335, 33-458: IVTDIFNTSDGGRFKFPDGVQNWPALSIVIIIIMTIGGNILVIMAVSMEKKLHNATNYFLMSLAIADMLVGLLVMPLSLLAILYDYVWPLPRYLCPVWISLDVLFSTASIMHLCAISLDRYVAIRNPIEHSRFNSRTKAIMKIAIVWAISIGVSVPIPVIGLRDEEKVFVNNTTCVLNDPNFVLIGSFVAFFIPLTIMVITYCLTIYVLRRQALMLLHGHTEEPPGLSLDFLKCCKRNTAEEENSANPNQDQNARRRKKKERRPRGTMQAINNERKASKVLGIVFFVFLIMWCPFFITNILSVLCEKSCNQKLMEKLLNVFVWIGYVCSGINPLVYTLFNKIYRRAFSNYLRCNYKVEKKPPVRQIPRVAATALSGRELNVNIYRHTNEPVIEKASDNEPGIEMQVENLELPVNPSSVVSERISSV
UniProt P31645, whole entry, species assumed: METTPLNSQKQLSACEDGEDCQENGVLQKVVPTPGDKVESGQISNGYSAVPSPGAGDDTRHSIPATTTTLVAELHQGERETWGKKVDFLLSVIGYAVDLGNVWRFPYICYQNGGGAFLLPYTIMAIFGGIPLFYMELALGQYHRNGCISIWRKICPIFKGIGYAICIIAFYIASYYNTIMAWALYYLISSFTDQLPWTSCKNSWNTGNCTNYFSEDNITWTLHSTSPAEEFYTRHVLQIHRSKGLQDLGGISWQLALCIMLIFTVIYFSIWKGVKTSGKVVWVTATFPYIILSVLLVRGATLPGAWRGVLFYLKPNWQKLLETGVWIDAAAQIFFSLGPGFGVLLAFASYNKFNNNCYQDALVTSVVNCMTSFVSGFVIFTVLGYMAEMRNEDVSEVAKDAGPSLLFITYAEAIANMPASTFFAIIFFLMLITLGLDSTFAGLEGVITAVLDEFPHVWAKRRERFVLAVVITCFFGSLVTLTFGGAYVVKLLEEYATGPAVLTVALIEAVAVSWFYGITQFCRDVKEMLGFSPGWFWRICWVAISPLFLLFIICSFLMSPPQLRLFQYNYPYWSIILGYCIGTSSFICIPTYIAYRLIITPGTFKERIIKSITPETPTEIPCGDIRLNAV

Assays:
5-HT2A receptor = 5-HT2A receptor (Homo sapiens, UniProt P28223); test: Receptor binding affinity at 5-HT2A (NIMH-PDSP radioligand binding)
D2 receptor = D2 receptor (Homo sapiens, UniProt P14416); test: Receptor binding affinity at dopamine D2 (NIMH-PDSP radioligand binding)
5-HT1A receptor = 5-HT1A receptor (Homo sapiens, UniProt P08908); test: Receptor binding affinity at 5-HT1A (NIMH-PDSP radioligand binding); settings: Table 6, FIG. 23 compounds; for Ki: read-out: Ki 5-HT1A
D3 receptor = D3 receptor (Homo sapiens, UniProt P35462); test: Receptor binding affinity at dopamine D3 (NIMH-PDSP radioligand binding); settings: for Ki: read-out: Ki D3
5-HT7 receptor = 5-HT7 receptor (Homo sapiens, UniProt P34969); test: Receptor binding affinity at 5-HT7 (NIMH-PDSP radioligand binding)
5-HT2C receptor = 5-HT2C receptor (Homo sapiens, UniProt P28335); test: Receptor binding affinity at 5-HT2C (NIMH-PDSP radioligand binding); settings: Table 6, FIG. 23 compounds
SERT = SERT (Homo sapiens, UniProt P31645); test: Binding affinity at SERT

Row | Substance | Ki (5-HT2A receptor) | pKi ± SEM 5-HT2A (5-HT2A receptor) | pKi ± SEM 5-HT1A (5-HT1A receptor) | Ki (5-HT1A receptor) | Ki (D3 receptor) | pKi ± SEM 5-HT7 (5-HT7 receptor) | other results
1 | 2-(2-(5-Fluoro-2,3-dihydro-1H-inden-2-yl)ethyl)-1,2,3,4-tetrahydroisoquinoline hydrochloride [Compound 5] | 1330 nM | (5.88 ± 0.04) | (7.18 ± 0.04) | 66 nM |  |  | Ki (D2 receptor): 885 nM; pKi ± SEM D2 (D2 receptor): (6.05 ± 0.05)
2 | 2-(3-(4-Fluorophenoxy)propyl)-1,2,3,4-tetrahydroisoquinoline hydrochloride [Compound 7] | 525 nM | (6.28 ± 0.04) |  | 146 nM | 822 nM |  | 
3 | 2-(4-(1H-Indol-3-yl)butyl)-1,2,3,4-tetrahydroisoquinoline [Compound 4] | 1010 nM | (5.99 ± 0.09) | (7.48 ± 0.04) | 33 nM |  | (8.4 ± 0.07) | Ki (5-HT7 receptor; read-out: Ki 5-HT7): 4 nM
4 | 2-(4-(3,4-Dihydroisoquinolin-2(1H)-yl)butyl)isoindoline-1,3-dione [Compound 1] |  |  |  |  | 866 nM | (8.8 ± 0.06) | 
5 | 2-(4-(4-Fluorophenyl)butyl)-1,2,3,4-tetrahydroisoquinoline hydrochloride [Compound 6] | 962 nM |  |  |  | 78 nM |  | Ki (5-HT2C receptor): 618 nM; pKi ± SEM 5-HT2C (5-HT2C receptor): (6.21 ± 0.06); pKi ± SEM D3 (D3 receptor): (7.1 ± 0.1)
6 | 2-(4-(Octahydroisoquinolin-2(1H)-yl)butyl)isoindoline-1,3-dione [Compound 2] | 748 nM | (6.1 ± 0.1) | (7.73 ± 0.04) | 19 nM |  |  | Ki (SERT): > 10000 nM; pKi ± SEM SERT (SERT): (>5.0)
